Experimental data from PubChem BioAssay AID624003 (Vanderbilt Specialized Chemistry Center, 2012).

Chains of the proteins cited; added tags and fusions are not shown. Lines headed by an entry give the natural chain unless they say otherwise; changes in a name come on top.
UniProt Q13393: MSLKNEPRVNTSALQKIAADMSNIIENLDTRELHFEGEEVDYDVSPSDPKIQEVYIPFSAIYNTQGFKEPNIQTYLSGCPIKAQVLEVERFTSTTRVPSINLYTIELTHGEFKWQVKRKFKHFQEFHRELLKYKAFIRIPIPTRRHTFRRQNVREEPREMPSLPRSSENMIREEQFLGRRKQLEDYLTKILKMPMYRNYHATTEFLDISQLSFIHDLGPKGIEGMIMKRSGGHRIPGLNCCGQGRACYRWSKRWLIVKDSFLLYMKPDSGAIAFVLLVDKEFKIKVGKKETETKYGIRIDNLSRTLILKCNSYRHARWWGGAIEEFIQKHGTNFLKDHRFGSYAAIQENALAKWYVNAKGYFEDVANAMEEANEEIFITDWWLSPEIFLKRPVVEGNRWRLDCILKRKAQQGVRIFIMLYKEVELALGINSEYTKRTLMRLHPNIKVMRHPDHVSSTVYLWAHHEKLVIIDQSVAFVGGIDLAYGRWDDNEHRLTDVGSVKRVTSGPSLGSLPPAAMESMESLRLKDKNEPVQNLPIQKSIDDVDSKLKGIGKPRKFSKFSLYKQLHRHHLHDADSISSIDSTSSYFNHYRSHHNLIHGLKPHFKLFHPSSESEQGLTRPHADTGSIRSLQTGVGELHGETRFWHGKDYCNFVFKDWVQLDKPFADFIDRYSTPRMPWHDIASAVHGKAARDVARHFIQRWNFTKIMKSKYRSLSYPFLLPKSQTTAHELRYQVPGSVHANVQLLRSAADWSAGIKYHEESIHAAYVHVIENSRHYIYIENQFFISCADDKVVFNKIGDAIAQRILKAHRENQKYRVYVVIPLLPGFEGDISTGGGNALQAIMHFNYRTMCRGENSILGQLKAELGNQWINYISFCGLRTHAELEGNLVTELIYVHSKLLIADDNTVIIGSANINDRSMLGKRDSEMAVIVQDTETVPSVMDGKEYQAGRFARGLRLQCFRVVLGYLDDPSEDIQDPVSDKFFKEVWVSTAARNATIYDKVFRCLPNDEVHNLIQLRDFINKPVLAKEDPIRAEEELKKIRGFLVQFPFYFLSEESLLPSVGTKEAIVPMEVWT

Molecular target: Phospholipase D1 (Homo sapiens) + Phospholipase D1 (Homo sapiens) (UniProt Q13393+Q13393)
Assay: cellular phospholipase D1 inhibitors, IC50 – cell-based, Lib32, assay 2A, dose response (AID 624003)
Details: cellular PLD1 activity assay

O=C(NCCN1CCC2(CC1)C(=O)NCN2c1cccc(F)c1)c1ccc(F)cc1
IC50: 11.8 µM
